In published antibiotic growth screens (doi:10.1038/s41589-023-01349-8) one finds relative growth data, which are given here for 25 compounds.

The list shows a part of the results.

This assay relates to A. baumannii ATCC 17978. As to the kind of experiment: relative growth (fraction of control); higher = less inhibition. As to conditions: 50 µM.
In turn, `O=C(NCc1csnn1)c1csnn1` had a relative growth of 0.913. In the case of `COCC#Cc1ccc2c(c1)O[C@H](CN(C)Cc1ccccc1F)[C@@H](C)CN([C@@H](C)CO)S2(=O)=O`, the relative growth came out at 1.01.

Take `NCCc1[nH]cnc1-c1cccs1`: the relative growth came to 0.935. Compound `C[C@H](O)[C@H](O)[C@@H](O)[C@@H](O)/C=N/NC(=O)c1ccc(C(=O)NO)cc1` came in with a relative growth of 1.09.

As to `O=C(C[C@@H]1CC[C@H]2[C@@H](COC[C@H](O)CN2C(=O)Nc2cccc(Cl)c2)O1)NCc1ccccc1F`, the relative growth amounted to 1.08. `O=C(O)COCC(=O)Nc1cnccn1` gave a relative growth of 1.09. Compound `COC(=O)C[C@@H]1CC[C@@H]2[C@H](COC[C@H](O)CN2S(=O)(=O)c2ccccc2C)O1` returned a relative growth of 1.16.

`CCS(=O)(=O)NCC[C@H]1CC[C@H](NC(=O)C2CCOCC2)[C@@H](CO)O1` showed a relative growth of 1.08. In turn, `COC(=O)C[C@H]1CC[C@H]2[C@@H](COC[C@@H](O)CN2S(=O)(=O)c2ccccc2C)O1` came in with a relative growth of 1.06. `C[C@H](O)C#Cc1ccc2c(c1)O[C@@H](CN(C)C(=O)C1CCCCC1)[C@H](C)CN([C@H](C)CO)S2(=O)=O` showed a relative growth of 0.92. For the compound `CC(C)Cn1cnc2c(N)nc3ccccc3c21.Cl`, the relative growth was 0.892. The compound `CN(C)/C=C/C(=S)c1cccs1` yielded a relative growth of 0.98. Compound `CO[C@H]1CN(C)C(=O)c2cc(NC(=O)C3CC3)ccc2OC[C@H](C)N(C(=O)Cc2ccccn2)C[C@@H]1C` showed a relative growth of 0.998.

Turning to `C/C=C/c1ccc2c(c1)O[C@@H](CN(C)S(=O)(=O)c1ccccc1)[C@@H](C)CN([C@@H](C)CO)S2(=O)=O`, the relative growth came out at 0.847. The compound `COc1ccc(S(=O)(=O)N[C@H]2C=C[C@H](CC(=O)N3CCC(Cc4ccccc4)CC3)O[C@@H]2CO)cc1` came in with a relative growth of 0.718. For `O=C(CCCN1CCC(O)(c2ccc(Br)cc2)CC1)c1ccc(F)cc1`, the relative growth was determined as 0.818.

The compound `Nn1c(CO)nc2ccccc21` gave a relative growth of 0.889. `CN1CCC[C@@H](CC2c3ccccc3Sc3ccccc32)C1` registered a relative growth of 0.612. With `CC1(COc2ccc3c(c2)ncn3-c2ccc3cccc(N4CCC(N)CC4)c3n2)COC1` the figure was 0.295; with `C=CCC[C@@H](Cc1ccc(F)cc1)C(=O)OC[C@H](Cc1c[nH]c2ccccc12)NC(=O)[C@H](CC=C)CC(=O)N(CCO)Cc1ccccc1`, 1.62; with `CNC(=O)C[C@@H]1CC[C@@H]2[C@H](COC[C@H](O)CN2C(=O)Nc2cccc(OC)c2)O1`, 1.03. For `CC1(C)CCC[C@]2(C)[C@H]3CC(=O)O[C@]3(C)CC[C@@H]12` the value was 1.13; for `CCS(=O)(=O)N[C@@H]1C=C[C@H](CC(=O)NCc2ccc(Cl)cc2)O[C@H]1CO`, 1.11. As to `C[C@@H]1COCCS(=O)(=O)N1C`, the relative growth amounted to 1. The compound `C[C@@H]1CN([C@H](C)CO)C(=O)c2cc(NS(=O)(=O)c3cccs3)ccc2O[C@@H](C)CCCCO[C@@H]1CN(C)Cc1ccc2c(c1)OCO2` came in with a relative growth of 1.05.
